The results in this text go back to US20040138234A1, “Histamine receptor antagonists” (Pfizer Inc, priority 2001, published 2004).

Chains of the proteins cited; added tags and fusions are not shown. A line that says so, or that is headed by a name, gives the form on record, which may keep a tag or linker.
UniProt Q9Y5N1, with tags, fused parts or gaps DEL228-354: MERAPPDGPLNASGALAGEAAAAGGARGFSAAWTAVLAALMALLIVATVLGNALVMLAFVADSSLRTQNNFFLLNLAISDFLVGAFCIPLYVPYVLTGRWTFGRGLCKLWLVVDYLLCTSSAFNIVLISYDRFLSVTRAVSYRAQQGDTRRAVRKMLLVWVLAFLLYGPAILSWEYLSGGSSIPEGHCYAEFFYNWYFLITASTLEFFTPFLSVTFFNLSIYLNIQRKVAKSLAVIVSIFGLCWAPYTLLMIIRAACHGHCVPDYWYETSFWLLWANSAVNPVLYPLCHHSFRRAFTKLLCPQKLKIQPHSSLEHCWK

The target in this assay is histamine H3 receptor (Homo sapiens, UniProt Q9Y5N1). Description: Histamine H3 receptor radioligand binding, human brain tissue. From the text: The cDNA for the human histamine H3 and H4 receptor can be expressed in a suitable cell line such as HEK293 or CHO. In addition membranes can be prepared from tissues or cells which naturally express either the histamine H3 and/or H4 receptor. Affinity can be assessed at either receptor by assessing the ability of ligands to inhibit the binding of a suitable radioactively labelled ligand to membranes containing either the histamine H3 or H4 receptor. The potency of compounds is compared by calculating their pKI values.

SMILES strings stand for the structures.

On to `NC(=NCc1ccc(Cl)cc1)SCCCc1cnc[nH]1` [Clobenpropit], for which the Ki is 2.34 nM.

Usually Ki stands for the equilibrium dissociation constant of an inhibitor or competing ligand from its target. The low end stands for a stronger hold on the target, the high end for a looser hold on the target.
